# In US5534498A, “Trypsin inhibitors” (Corvas International, Inc., priority 1993, dated 1996):
# How the values were obtained:
# Type in all cases: biochemical
# human Factor XIa = biological target: T1, human Factor XIa (Homo sapiens, UniProt P03951); assay: Factor XIa assay (S-2366 substrate); conditions: [IC50 for Trypsin/IC50 for other enzyme]×100; lower = more trypsin selective
# T1 construct: 50 μL of 5 nM human Factor XIa
# Experimental: (§1) The specificity of the peptide aldehydes (8 through 12) was determined in vitro by measurement of their IC50 against other enzymes involved in hemostasis. A specific concentration of enzyme and its substrate were challenged with varying concentrations of inhibitor. […] Specific assay procedures used are presented below.
# (§2) 96-well microtiter plates were prepared for use in these assays by incubating each well with 300 μL 1% bovine serum albumin (in deionized water) for 30 minutes at 37° C., then washing three times with deionized water.
# (§3) The substrate was made up in deionized water prior to use.
# bovine trypsin = biological target: T2, bovine trypsin (Bos taurus, UniProt P00760); assay: Trypsin assay, IC50 (S-2222 substrate); conditions: trypsin relative to itself (reference, 100 by definition)
# T2 sequence (P00760 24-246): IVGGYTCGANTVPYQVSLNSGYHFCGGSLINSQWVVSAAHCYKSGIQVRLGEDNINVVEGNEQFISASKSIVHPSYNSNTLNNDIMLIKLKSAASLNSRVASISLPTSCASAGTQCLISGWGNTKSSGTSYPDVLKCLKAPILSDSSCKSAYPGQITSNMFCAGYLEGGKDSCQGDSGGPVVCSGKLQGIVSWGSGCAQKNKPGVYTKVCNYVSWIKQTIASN
# Experimental: as §1, §2, §3
# plasmin = plasmin (Homo sapiens, UniProt P00747); assay: Plasmin assay (S-2251 substrate); design: 50 μL 25 nM human plasmin; conditions: [IC50 for Trypsin/IC50 for other enzyme]×100; lower = more trypsin selective
# Experimental: as §1, §2, §3
# [1] = biological target: recombinant tissue plasminogen activator (Homo sapiens, UniProt P00750); assay: Tissue plasminogen activator assay (S-2288 substrate); conditions: [IC50 for Trypsin/IC50 for other enzyme]×100; lower = more trypsin selective
# Experimental: as §1, §2, §3
# Factor VIIa:rTF complex = biological target: T3, Factor VIIa:rTF complex (Homo sapiens, UniProt P08709); assay: Factor VIIa assay (S-2288 substrate); conditions: [IC50 for Trypsin/IC50 for other enzyme]×100; lower = more trypsin selective
# T3 construct: 2.5 ml 400 nMhuman Factor VIIa
# Experimental: (§4) The specificity of the peptide aldehydes (8 through 12) was determined in vitro by measurement of their IC50 against other enzymes involved in hemostasis. A specific concentration of enzyme and its substrate were challenged with varying concentrations of inhibitor. IC50 is that concentration of inhibitor giving 50% inhibition of substrate turnover, under the assay conditions. Specific assay procedures used are presented below.
# as §2
# Enzyme activity was determined using as substrate, S-2288 [D-isoleucyl-L-prolyl-L-arginine-p-nitroanilide dihydrochloride], purchased from Kabi Diagnostica. The substrate was made up in deionized water prior to use. […]
# (§5) The assay was run by combining in appropriate wells 50 μL inhibitor in TBS or TBS alone and 100 μL of Factor VIIa:rTF complex or background control, incubating this mixture for 30 minutes at room temperature, adding 50 μL of 2 mM S-2288, incubating for an additional 30 to 60 minutes at room temperature, then reading the absorbance of the wells at 405 nm on a microtiter plate reader set with background substraction at 650 nm.
# human Factor Xa = biological target: T4, human Factor Xa (Homo sapiens, UniProt P00742); assay: Factor Xa assay (Pefachrome Xa substrate); conditions: [IC50 for Trypsin/IC50 for other enzyme]×100; lower = more trypsin selective
# T4 construct: 50 μL 30 nM human Factor Xa
# Experimental: as §1, §2
# Enzyme activity was determined using as substrate, Pefachrome Xa [N-methoxycarbonyl-D-cyclohexylalanyl-L-glycyl-L-arginine p-niroanilide acetate], purchased from Centerchem, Inc. The substrate was made up in deionized water prior to use.
# human urokinase = biological target: T5, human urokinase (Homo sapiens, UniProt P00749); assay: Urokinase assay (S-2444 substrate); conditions: [IC50 for Trypsin/IC50 for other enzyme]×100; lower = more trypsin selective
# T5 construct: 50 μL of 270 U/mL human urokinase
# Experimental: as §4, §2
# Enzyme activity was determined using as substrate S-2444 [L-pyroglutamyl-L-glycyl-L-arginine-p-nitroanilide hydrochloride], purchased from Kabi Diagnostica. The substrate was made up in deionized water prior to use.
# as §5, with “50” for “100”, “270 U/mL human urokinase (or TBS as” for “Factor VIIa:rTF complex or”, “control) and 50 μL TBS,” for “control,”, “1” for “of 2”, “S-2444,” for “S-2288,”, “30” for “30 to 60”
# bovine thrombin = biological target: T6, bovine thrombin (Bos taurus, UniProt P00735); assay: Thrombin assay (S-2238 substrate); conditions: [IC50 for Trypsin/IC50 for other enzyme]×100; lower = more trypsin selective
# T6 construct: 50 μL 20 nM bovine thrombin
# Experimental: as §4, §2
# Enzyme activity was determined using as substrate, S-2238 [D-phenylalanyl-L-pipecolyl-L-arginine-p-nitroanilide dihydrochloride], purchased from Kabi Diagnostica. The substrate was made up in deionized water prior to use.
# The assay was run by combining in appropriate wells 50 μL TBS and 50 μL inhibitor in TBS or TBS alone and 50 μL 20 nM bovine thrombin (or TBS as background control), incubating this mixture for 30 minutes at room temperature, adding 50 μL 1 mM S-2238, incubating for an additional 30 minutes at room temperature, then reading the absorbance of the wells at 405 nm on a microtiter plate reader set with background substraction at 650 nm.
# human kallekrein = biological target: T7, human kallekrein (Homo sapiens, UniProt P03952); assay: Kallikrein assay (S-2302 substrate); conditions: [IC50 for Trypsin/IC50 for other enzyme]×100; lower = more trypsin selective
# T7 construct: 50 μL of 4 to 9 nM human kallekrein
# Experimental: as §1, §2, §3
# [2] = biological target: T8, Activated human Protein C (Homo sapiens, UniProt P04070); assay: Protein C assay (Pefachrome PC substrate); conditions: [IC50 for Trypsin/IC50 for other enzyme]×100; lower = more trypsin selective
# T8 construct: from tissue
# Experimental: as §1, §2
# Enzyme activity was determined using as substrate, Pefachrome PC [δ-carbobenzoloxy-D-lysyl-L-prolyl-L-arginine-p-nitroanilide], purchased from Centerchem, Inc. The substrate was made up in deionized water prior to use. Protac used to activate Protein C was obtained from American Diagnostics.
smiles,measurement,setting,value
"CC(=O)N[C@@H](CC(C)C)C(=O)N[C@@H](CC(C)C)C(=O)N[C@H](C=O)CCCNC(=N)N [Leupeptin, reference compound]",Calculated % Selectivity XIa,human Factor XIa,15%
same,Calculated % Selectivity Trypsin,bovine trypsin,100%
same,Calculated % Selectivity Plasmin,plasmin,21%
same,Calculated % Selectivity tPA,[1],0%
same,Calculated % Selectivity VIIa,Factor VIIa:rTF complex,< 6.8%
same,Calculated % Selectivity Xa,human Factor Xa,6.8%
same,Calculated % Selectivity UK,human urokinase,0%
same,Calculated % Selectivity Thrombin,bovine thrombin,8.5%
same,Calculated % Selectivity Kallikrein,human kallekrein,43%
same,Calculated % Selectivity Protein C,[2],< 6.8%
